{
  "source": "patent US20110104713A1",
  "about": "“PRODUCTS AND PROCESSES FOR MODULATING PEPTIDE-PEPTIDE BINDING DOMAIN INTERACTIONS” (priority 2002, published 2011)",
  "binders": {"B1": {"name": "Plk-1 Polo-box domain (PBD), residues 326-603 (protein)", "chain": "SIAPSSLDPSNRKPLTVLNKGLENPLPERPREKEEPVVRETGEVVDCHLSDMLQQLHSVNASKPSERGLVRQEEAEDPACIPIFWVSKWVDYSDKYGLGYQLCDNSVGVLFNDSTRLILYNDGDSLQYIERDGTESYLTVSSHPNSLMKKITLLKYFRNYMSEHLLKAGANITPREGDELARLPYLRTWFRTRSAIILHLSNGSVQINFFQDHTKLILCPLMAAVTYIDEKRDFRTYRLSLLEEYGCCKELASRLRYARTMVDKLLSSRSASNRLKAS", "modifications": "here or on the partner: phosphothreonine (pT) at position 8"}},
  "biological_target": "T1, PoloBoxtide-optimal, MAGPMQ-S-pT-P-LNGAKK (Artificial Sequence)",
  "T1 chain": "MAGPMQSTPLNGAKK",
  "assay": "isothermal titration calorimetry, peptide injected into PBD (residues 326-603)",
  "details": "remark: other sources report otherwise",
  "data": [
    {"binder": "B1", "values": [
      {"measurement": "Kd", "value": 280, "unit": "nM"}
    ]}
  ]
}
